Literature values, collected in patent US20100260680A1, “NOVEL BONE MASS INCREASING AGENT” (ORIENTAL YEAST CO., LTD., priority 2007, published 2010).

Conditions: manufacturer's instructions; cited from earlier work

B1: BMP-2 expressed in CHO cells: BMP-2 (R&D) produced by CHO cells (protein, UniProt P12643 283-396, looked up)
Bone morphogenetic protein 2: QAKHKQRKRLKSSCKRHPLYVDFSDVGWNDWIVAPPGYHAFYCHGECPFPLADHLNSTNHAIVQTLVNSVNSKIPKACCVPTELSAISMLYLDENEKVVLKNYQDMVVEGCGCR
modifications: expressed in CHO cells
notes: BMP-2 (R&D) produced by CHO cells
  activity relative to BMP-2 produced by Escherichia coli: approximately 10 times
